## Binding of CDR-mutated scFvs to a peptide of the spike HR2 region

Data: MIT Lincoln Laboratory AlphaSeq set, Engelhart et al. 2022, doi:10.1038/s41597-022-01779-4, as distributed in FLAb.

Target peptide (SARS-CoV-2 spike, HR2 region): PDVDLGDISGINAS

Ab-91 is the parent antibody, in scFv form: VL, then a 15-residue (Gly4Ser)3 linker, then VH. The light chain is unchanged in all variants.
VL: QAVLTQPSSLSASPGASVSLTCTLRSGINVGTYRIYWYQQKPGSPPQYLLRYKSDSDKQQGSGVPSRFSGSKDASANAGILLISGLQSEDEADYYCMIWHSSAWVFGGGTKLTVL
VH: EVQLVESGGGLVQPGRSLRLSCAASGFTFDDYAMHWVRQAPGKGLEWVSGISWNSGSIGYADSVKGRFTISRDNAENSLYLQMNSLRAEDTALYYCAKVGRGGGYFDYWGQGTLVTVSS

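Phage display of a naive human antibody library on the peptide gave the parent. AAYL51 was designed without a model: most single CDR substitutions and a random sample of double and triple ones. Affinity was read by AlphaSeq, a pooled yeast mating assay with surface-displayed partners. Binding brings cells together so that they mate, and sequencing counts the barcode pairs among the diploids. Each replicate has its own calibration line, from reference interactions of the BCL2 family. There are three technical replicates.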

Each variant is given by its three heavy chain CDRs, as the data file delimits them; those of the parent are GFTFDDYAMH, GISWNSGSIGYADSVK, VGRGGGYFDY. The Kd shown is the geometric mean over detected replicates; a lower Kd is a better binder. Where no diploid with the target was found in any replicate, the entry reads "nd": below detection, most likely a poor binder, though not proof of it.

CDR-H1 | CDR-H2 | CDR-H3 | Kd | detected | control signals
GFTFDDYGMH | GISWNSGSIGYADSVK | VTRAGGYFDY | 130 nM | 3/3 | 5/9
GFTFDDYIMH | GISWNSGSIGYADSVK | VGRGGGYVDY | 2.0 µM | 1/3 | 1/9
GFTFDDYWMH | GLSWNSGSVGYADSVK | VGRGGGYFDY | 60 µM | 3/3 | 3/9
GFTFDDYAEH | GISWNSGSIPYADSVK | VGRGEGYFDY | nd | 0/3 | 1/9
GFTFDDYIMH | GIVWNSGSIGYADSKK | VGRGGGYFDY | nd | 0/3 | 1/9
GFTFDPYAMH | GISWNSGSIGYADSFK | VGRGGGYFKY | 80 µM | 1/3 | 1/9
GFDFDDYAMH | GISWNSGSIGEAMSVK | VGRGGGYFDY | nd | 0/3 | 0/9
GMTFDDYAMH | GISWNSVSIGYADSVK | VGRGGGYWDY | 20 µM | 3/3 | 4/9
GFTFDDYAMH | GISCNSESIGYADSVK | VGRGGGYFDY | 63 nM | 2/3 | 1/9
SFTFDDYAHH | GISWNSGSIGYADSVK | VGRGGGYFDV | nd | 0/3 | 2/9
TFTFDDYAHH | GISWNSGSIGYADSVK | VGRGGYYFDY | nd | 0/3 | 0/9
GFTFDDYAMH | GNSRNSGSIGYADSVK | VPRGGGYFDY | 8.9 µM | 1/3 | 0/9
GFIQDDYAMH | GISWASGSIGYADSVK | VGRGGGYFDY | 440 µM | 2/3 | 2/9
GFTFDDYAMH | GRSWNSGSIGYADSAK | VGRGGGYFDK | nd | 0/3 | 3/9
GKQFDDYAMH | GISWNSGSIGYADSVK | VGRRGGYFDY | 97 µM | 3/3 | 6/9
GFTFDDYAMH | GISWNYGSIRYADSVK | VGRGGGYFGY | 51 µM | 3/3 | 8/9
GFTFDDYAMH | GITWNIGSIGTADSVK | VGRGGGYFDY | nd | 0/3 | 0/9
GFTFDDYDMH | GISWNSRSIGYAPSVK | VGRGGGYFDY | nd | 0/3 | 0/9
GFTFDDYAMH | GIAWNDGSIGYADSVK | VWRGGGYFDY | 850 nM | 3/3 | 3/9
GCTFDDYAMH | GIGWNSGSIGYADSVK | VGRQGGYFDY | 230 µM | 2/3 | 1/9
GCTFDDYAMH | GIQWNSGSIGYADSVK | VGRGGGLFDY | 34 µM | 3/3 | 5/9
GFTFDDYAMH | GISWNSGSIGYADSVK | WQRGGGYFDY | 42 µM | 1/3 | 3/9
GFTFCDYAMF | GISWNNGSIGYADSVK | VGRGGGYFDY | nd | 0/3 | 0/9
GFTFWDYAMH | GISWNSGRIGYYDSVK | VGRGGGYFDY | 560 µM | 1/3 | 2/9
GFTFDDEAYH | GISWNNGSIGYADSVK | VGRGGGYFDY | 15 µM | 2/3 | 1/9
GFTWDDYAMH | GISWNSGSIGYAISQK | VGRGGGYFDY | nd | 0/3 | 1/9
DFTFDDYAMH | GISWNSGSSGYADSFK | VGRGGGYFDY | 20 µM | 3/3 | 4/9
GFTFDDYAMH | GISWNDGSIHYADSVK | VGRGEGYFDY | 51 µM | 1/3 | 4/9
GFTQDDYAMH | GISWNSVSIGYADSVK | VGRGGYYFDY | 1.0 mM | 1/3 | 2/9
CFTFDDYAMH | GIIWNSGSIGYADSVK | VCRGGGYFDY | 9.5 µM | 1/3 | 3/9
GFEFDDYAMH | GISWNSCSIGYADSGK | VGRGGGYFDY | 250 µM | 2/3 | 5/9
GFAFDDYAMH | GISWNSGIIGYADSVK | VVRGGGYFDY | 450 µM | 1/3 | 4/9
GFNFDDYAMH | GIDWNSGSIGYADSVK | VGRGGGYFDY | nd | 0/3 | 0/9
GFHFDDYAMH | GIEWNSGSIGYLDSVK | VGRGGGYFDY | 46 µM | 2/3 | 3/9
GFTFDDYAMH | GISWNSESIGYADVVK | VGRGGGYFDC | 60 µM | 1/3 | 1/9
GFYFDDYRMH | GISWCSGSIGYADSVK | VGRGGGYFDY | nd | 0/3 | 0/9
GQTFDVYAMH | GISWNSGSIGYIDSVK | VGRGGGYFDY | 22 µM | 1/3 | 0/9
GDTFDDYAMH | GISWNSGSEGYADQVK | VGRGGGYFDY | nd | 0/3 | 0/9
GFTQDDYAMH | GISWNSGSIGYADSVK | VGRGGGYFHY | nd | 0/3 | 0/9
GFTFDDYAMH | GISWNSGSIGYAPDVK | VGRGGGYFDG | 40 nM | 3/3 | 3/9
GFTFDDYAVH | GISWNSGSIGYADSVK | RGRGGGYFDD | 22 µM | 2/3 | 1/9
GFTFDDYAPH | GISWNSGSIGYADCVK | VGRDGGYFDY | 210 µM | 2/3 | 1/9
GFTFDDYAMH | GISWNSGSIGYADSVR | VGRGGGPEDY | 340 µM | 1/3 | 1/9
GFTLDDYHMH | GISWNSGSIGYADSVK | VGRGGGYFDY | 9.7 µM | 1/3 | 1/9
GFTFDDYAMH | GISWNSGSIGYADTRK | LGRGGGYFDY | nd | 0/3 | 1/9
GFTFDDYAMH | GKSWNFGSIGYADSVK | VGRGGHYFDY | 20 µM | 1/3 | 2/9
GFTFDWYAMH | GISWNSGSIGYADSVK | VGRGGGYFDC | 160 nM | 3/3 | 0/9
GTTFDMYAMH | GISWNSGSIGYADSVK | VGRGAGYFDY | nd | 0/3 | 1/9
GFTFDDYAMS | GISWNSGSIGYADRVK | VGRGGGVFDY | nd | 0/3 | 1/9
GFTFDDYAMH | GIPWNSGRIGYADSVK | VGRGGGYFDY | 260 µM | 1/3 | 1/9
NFTFDDYAMH | GIEWNSGSIGYADSVK | VGRGGGYHDY | 670 µM | 1/3 | 2/9
GFTFVDYAMH | GILWNSGSIGYADSVK | VKRGGGYFDY | 69 µM | 1/3 | 1/9
GFTWDDYAMH | GISWNSGSIGYADSVK | VGAGGGYFQY | nd | 0/3 | 0/9
GFTFDDDAMH | EISWNSGSHGYADSVK | VGRGGGYFDY | nd | 0/3 | 0/9
GFTSDDYAMH | GISWNSGSIGYADSTK | VGRGGEYFDY | 38 µM | 2/3 | 6/9
GFTFDDYAMH | GISWNSGSIGYADSVK | KGRVGGYFCY | nd | 0/3 | 0/9
GFTFDDYAMH | GHSWNSGNIGYADSVK | VGRGGGYFDY | nd | 0/3 | 2/9
GFTFDDYAMH | GISWKSWSIGYPDSVK | VGRGGGYFDY | nd | 0/3 | 0/9
GRTFDDYAMH | GISWNSGSIGYADSVK | FGRGGGYFDY | 23 µM | 2/3 | 1/9
DFTFDDYAMH | GISWNSGSIGYADSVK | AARGGGYFDY | 29 µM | 1/3 | 5/9
GFTFDDYAMH | GISWNSGSIGYADSVK | VGMGGKYADY | 77 µM | 1/3 | 1/9
GFTFDDYAMH | GISWNSGSCGYADSYK | VGRGGGYKDY | 1.2 µM | 3/3 | 3/9
GITFDDYAMH | GISWNSGSIGYADTQK | VGRGGGYFDY | 27 µM | 2/3 | 3/9
GFTFDDYAMH | GISWNSGPIGYADSKK | VGRGGDYFDY | 17 µM | 1/3 | 0/9
GFTFDHYAMG | GISWNSGSIGYAQSVK | VGRGGGYFDY | 1.7 µM | 1/3 | 6/9
GFTFEDYAMG | GISWNEGSIGYADSVK | VGRGGGYFDY | nd | 0/3 | 1/9
GGTWDDYAMH | GISWNSGSIGPADSVK | VGRGGGYFDY | 110 µM | 3/3 | 8/9
GFWFDDYAMH | GISWNSGSIQYADSVK | VGRGGGMFDY | nd | 0/3 | 0/9
GLTFDDYAMH | GISWWFGSIGYADSVK | VGRGGGYFDY | 7.5 µM | 1/3 | 4/9
GFTYWDYWMH | GISWNSGSIGYADSVK | VGRGGGYFDY | 92 µM | 3/3 | 1/9
GFTVDDYTMH | GISWNSGSIGYADSVF | VGRGGGYFDY | 49 µM | 1/3 | 3/9
EFTFDDYAMH | GISWNMGSIGYAGSVK | VGRGGGYFDY | 51 µM | 1/3 | 3/9
GFTFLDYAMH | GWHWNSGSIGYADSVK | VGRGGGYFDY | 100 µM | 3/3 | 5/9

Top 8 of the variants detected in all replicates, tightest first:

CDR-H1	CDR-H2	CDR-H3	Kd	detected	control signals
GFTFDDYAMH	GISWNSGSIGYAPDVK	VGRGGGYFDG	40 nM	3/3	3/9
GFTFDDYGMH	GISWNSGSIGYADSVK	VTRAGGYFDY	130 nM	3/3	5/9
GFTFDWYAMH	GISWNSGSIGYADSVK	VGRGGGYFDC	160 nM	3/3	0/9
GFTFDDYAMH	GIAWNDGSIGYADSVK	VWRGGGYFDY	850 nM	3/3	3/9
GFTFDDYAMH	GISWNSGSCGYADSYK	VGRGGGYKDY	1.2 µM	3/3	3/9
DFTFDDYAMH	GISWNSGSSGYADSFK	VGRGGGYFDY	20 µM	3/3	4/9
GMTFDDYAMH	GISWNSVSIGYADSVK	VGRGGGYWDY	20 µM	3/3	4/9
GCTFDDYAMH	GIQWNSGSIGYADSVK	VGRGGGLFDY	34 µM	3/3	5/9

For reference, the parent read 72 nM as the reference entry and 7.5 nM as a member of this library. Empty control strains, which show no peptide, gave a signal in 21% of pairings with library AAYL51; the median was 34 µM and 95% of these signals were weaker than 1.8 µM. No background was subtracted. For each scFv, signals with the empty controls are counted beside the result.